The target in the assay is Mu-type opioid receptor (Homo sapiens) + Delta-type opioid receptor (Homo sapiens) (UniProt P35372+P41143). The experiment in a line: agonists of MOR-DOR heterodimerization, confirmation, cell-based, luminescence (AID 504904).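 Further: 0% = vehicle-treated cells and 100% = reference agonist.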 As to conditions: cells, luminescence complementation, at 9.3 µM, hits give high values.

Sequences of proteins named here, by UniProt entry; tags and fusion partners are left off.
UniProt P35372, whole entry, looked up: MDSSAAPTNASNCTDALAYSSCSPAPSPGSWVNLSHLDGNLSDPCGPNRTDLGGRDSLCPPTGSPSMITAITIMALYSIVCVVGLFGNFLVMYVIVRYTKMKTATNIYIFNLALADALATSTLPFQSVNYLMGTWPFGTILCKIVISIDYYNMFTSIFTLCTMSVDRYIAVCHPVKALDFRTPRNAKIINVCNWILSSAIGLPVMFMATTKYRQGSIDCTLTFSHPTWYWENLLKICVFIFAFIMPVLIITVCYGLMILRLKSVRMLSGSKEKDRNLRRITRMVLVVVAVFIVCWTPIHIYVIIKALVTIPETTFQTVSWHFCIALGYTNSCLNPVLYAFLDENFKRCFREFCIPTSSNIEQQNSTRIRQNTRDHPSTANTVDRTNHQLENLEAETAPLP
UniProt P41143, whole entry, looked up: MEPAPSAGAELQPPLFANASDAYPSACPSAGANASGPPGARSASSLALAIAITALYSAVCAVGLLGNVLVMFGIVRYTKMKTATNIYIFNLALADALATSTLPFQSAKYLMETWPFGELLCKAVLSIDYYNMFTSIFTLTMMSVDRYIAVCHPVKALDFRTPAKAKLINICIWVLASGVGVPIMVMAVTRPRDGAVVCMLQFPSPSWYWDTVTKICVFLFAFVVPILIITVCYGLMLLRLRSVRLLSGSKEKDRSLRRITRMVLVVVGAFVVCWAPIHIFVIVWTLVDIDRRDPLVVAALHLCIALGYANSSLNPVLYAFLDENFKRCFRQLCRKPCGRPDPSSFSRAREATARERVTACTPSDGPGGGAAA

Only a part is listed here, and it is no random draw. Activity calls are given as the source filed them. No stated cut-off is given here; in the data, active means activation above about 18%; inactive means the rest.

Regarding `CN(C(=O)Cc1ccc(Cl)c(Cl)c1)[C@H]1CC[C@@]2(CCCO2)C[C@@H]1N1CCCC1`, the activation is active: 124%.

Source of the values: PubChem BioAssay AID504904 (The Scripps Research Institute Molecular Screening Center, 2011).
